Assay results taken from paper PMC9687798, “Atypical Substrates of the Organic Cation Transporter 1” (Biomolecules, 2022).

Legend:
[1] = substrate: Nc1nc(O)c2ncn(COC(CO)CO)c2n1; assay: cells, lysate or membranes; details: other: net uptake (OCT1 minus empty vector), HEK293, 0.1-1000 µM substrate, Michaelis–Menten; pH 7.4
[2] = substrate: Nc1nnc(-c2cccc(Cl)c2Cl)c(N)n1; assay: cells, lysate or membranes; details: other: net uptake (OCT1 minus empty vector), HEK293, 0.1-1000 µM substrate, Michaelis–Menten; pH 7.4

B1: human OCT1*1 (wild-type) (Homo sapiens) (protein)
chain: MPTVDDILEQVGESGWFQKQAFLILCLLSAAFAPICVGIVFLGFTPDHHCQSPGVAELSQRCGWSPAEELNYTVPGLGPAGEAFLGQCRRYEVDWNQSALSCVDPLASLATNRSHLPLGPCQDGWVYDTPGSSIVTEFNLVCADSWKLDLFQSCLNAGFLFGSLGVGYFADRFGRKLCLLGTVLVNAVSGVLMAFSPNYMSMLLFRLLQGLVSKGNWMAGYTLITEFVGSGSRRTVAIMYQMAFTVGLVALTGLAYALPHWRWLQLAVSLPTFLFLLYYWCVPESPRWLLSQKRNTEAIKIMDHIAQKNGKLPPADLKMLSLEEDVTEKLSPSFADLFRTPRLRKRTFILMYLWFTDSVLYQGLILHMGATSGNLYLDFLYSALVEIPGAFIALITIDRVGRIYPMAMSNLLAGAACLVMIFISPDLHWLNIIIMCVGRMGITIAIQMICLVNAELYPTFVRNLGVMVCSSLCDIGGIITPFIVFRLREVWQALPLILFAVLGLLAAGVTLLLPETKGVALPETMKDAENLGRKAKPKENTIYLKVQTSEPSGT
B1 showed a Km [1] of 849 ± 1560 µM and a Km [2] of 44.4 ± 63.1 µM.
